# Laboratory results: patent publication US20260193229A1, “BRISC DEUBIQUITINATING ENZYME INHIBITORS” (THE TRUSTEES OF THE UNIVERSITY OF PENNSYLVANIA, priority 2022, published 2026)
# Target: BRISC (Homo sapiens, UniProt P46736+Q15018)
# Test: BRISC DUB inhibition assay with quenched K63-linked di-ubiquitin substrate (TAMRA fluorescence)
# Settings: read-out: BRISC IC50 μM Range; Table 1, Activity Range Table
# Method: High throughput screening. A baculoviral expression system was established to purify milligram quantities of the entire BRISC complex from insect cells. The MultiBac system was used to clone all 4 components of the BRISC complex into one vector which was then packaged into the baculovirus genome using the methods described in Zeqiraj et al., 2015 (Mol. Cell).
# The assay buffer included: 50 mM HEPES-NaOH, pH 7.0; 100 mM NaCl; 1 mM DTT; 1 mg/ml BSA; and 0.03% Brij-35. BRISC was assayed at 1 nM (final concentration) with the substrate at 500 nM (final concentration). The final reaction volume was 20 μl in each 384 plate well (Corning, #3573; black, low flange, flat bottom) with a final concentration of compounds of 10 μM.
# A 5 ml of enzyme solution with BRISC at 2 nM in assay buffer was made by adding 10 μl of BRISC working stock (1 μM) to 5 ml of assay buffer. A 5 ml of substrate solution was made with […] of K63-diUbiquitin (made in-house) plus […] of IQF K63-diUbiquitin by adding the appropriate volumes of diUbiquitins to 5 ml of assay buffer. 45 μL of BRISC (enzyme solution) was dispensed into columns 1-11 of a 96 well PCR plate (skirted). Buffer was only dispensed in column 12 (no enzyme control). 45 μl of substrate solution was dispensed into columns 1-12 of a 96 well PCR plate (skirted). The plate was spun down at 3000 rpm (bench top centrifuge) at room temp for 2 min to remove any air bubbles. Using a Biomek FX, liquid handler (Bekman), 10 μl of BRISC (enzyme solution) was dispensed into the 4 quadrants of a 384 well plate. 200 nl of compounds was dispensed into each well of the 384 plates using the pin tool (columns A and B usually contain DMSO only, and serve as controls), and the plates were incubated for 10-15 minutes at room temperature. 10 μl of substrate solution was dispensed into the 4 quadrants of the 384 well plate. The plate was then incubated for 30 min at room temperature in the dark and read with settings suitable for detecting TAMRA fluorescence (excitation wavelength of 540 nm and emission wavelength of 580 nm). A PHERAStar plate (BMG labtech) reader was used with a gain value of 570. The Intensity/Background (I/Bg), defined as [(Average of columns 1 and 2; DMSO controls)/(Average of columns 23 and 24; no enzyme controls)], were about 5.
# The activities of the compounds disclosed in the present disclosure in inhibiting BRCC36 enzyme activity was measured in accordance with the method disclosed in Example 2.
row,SMILES,IC50 [µM]
1,O=C(NCCCN1CCCC1)c1nn(C(=O)c2c(Cl)cccc2Cl)cc1NC(=O)c1c(Cl)cccc1Cl,10 to 50
2,CC1CN(C(=O)c2nn(C(=O)c3c(Cl)cccc3Cl)cc2NC(=O)c2c(Cl)cccc2Cl)CC(C)N1 (centres unmarked),10 to 50

# Same assay, conditions: read-out: BRISC IC50 μM Range; Table 2, method of Example 2
row,SMILES,IC50 [µM]
1,O=C(NC1CCNCC1)c1nn(S(=O)(=O)c2ccc([N+](=O)[O-])cc2)cc1NC(=O)c1c(Cl)cccc1Cl,10 to 50
2,O=C(Nc1cn(C(=O)c2c(Cl)cccc2Cl)nc1C(=O)NC1CCNCC1)c1ccccc1F,10 to 50
3,O=C(NC(CCCCNC(=O)c1c(Cl)cccc1Cl)C(=O)NCc1ccccc1)OCc1ccccc1 (centres unmarked),10 to 50
4,O=C(Nc1cn(C(=O)c2c(Cl)cccc2Cl)nc1C(=O)NC1CCNCC1)c1cccc(Cl)c1,1 to 10
5,O=C(Nc1cn(C(=O)c2c(Cl)cccc2Cl)nc1C(=O)NC1CCNCC1)c1cc([N+](=O)[O-])ccc1Cl,1 to 10
6,CC(C)C[C@H](NC(=O)OCc1ccccc1)C(=O)N[C@@H](C)C(=O)NCc1cccc(C(=O)NO)c1,1 to 10
7,CC(C)(C)OC(=O)NCC(=O)NCCCCC(NC(=O)OCc1ccccc1)C(=O)NCc1ccccc1 (centres unmarked),10 to 50
8,O=C(Nc1cn(C(=O)c2c(Cl)cccc2Cl)nc1C(=O)NC1CCNCC1)c1cccs1,10 to 50
9,O=C(Nc1cn(C(=O)c2c(Cl)cccc2Cl)nc1C(=O)NC1CCNCC1)c1cccc(CN2CCOCC2)c1,10 to 50
10,Nc1ccc(S(=O)(=O)n2cc(NC(=O)c3c(Cl)cccc3Cl)c(C(=O)NC3CCNCC3)n2)cc1,10 to 50
11,NCCCCCCOc1ccc(S(=O)(=O)n2cc(NC(=O)c3c(Cl)cccc3Cl)c(C(=O)NC3CCNCC3)n2)cc1,10 to 50
12,O=C(Nc1ccncc1)c1nn(C(=O)c2c(Cl)cccc2Cl)cc1NC(=O)c1c(Cl)cccc1Cl,10 to 50
13,O=C(CNC(=O)CNC(=O)OCc1ccccc1)NCc1ccc(C(=O)NO)cc1,10 to 50
14,COc1ccc(C(=O)Nc2cn(C(=O)c3c(Cl)cccc3Cl)nc2C(=O)NC2CCNCC2)cc1OC,10 to 50
15,O=C(NC1CCNCC1)c1nn(C(=O)c2c(Cl)cccc2Cl)cc1NCc1ccc(Cl)cc1,1 to 10
16,NCCNC(=O)c1nn(C(=O)c2c(Cl)cccc2Cl)cc1NC(=O)c1c(Cl)cccc1Cl,1 to 10
17,COc1ccc(CCS(=O)(=O)n2cc(NC(=O)c3c(Cl)cccc3Cl)c(C(=O)NC3CCNCC3)n2)cc1,10 to 50
18,C#CCCCCNC(=O)COc1ccc(S(=O)(=O)n2cc(NC(=O)c3c(Cl)cccc3Cl)c(C(=O)NC3CCNCC3)n2)cc1,1 to 10
19,O=C(Nc1cn(C(=O)c2c(Cl)cccc2Cl)nc1C(=O)NC1CCNCC1)c1cccnc1C(F)(F)F,1 to 10
20,O=C(O)COc1ccc(S(=O)(=O)n2cc(NC(=O)c3c(Cl)cccc3Cl)c(C(=O)NC3CCNCC3)n2)cc1,10 to 50
21,CC(C)C[C@H](NC(=O)OCc1ccccc1)C(=O)N[C@@H](C)C(=O)NCc1ccc(C(=O)NO)cc1,1 to 10
